Test results published in ChEMBL document CHEMBL1132484, “New alpha-substituted succinate-based hydroxamic acids as TNFalpha convertase inhibitors” (J Med Chem, 1999).

Chains of the proteins cited; added tags and fusions are not shown. Lines headed by an entry give the natural chain unless they say otherwise; changes in a name come on top.
UniProt P78536: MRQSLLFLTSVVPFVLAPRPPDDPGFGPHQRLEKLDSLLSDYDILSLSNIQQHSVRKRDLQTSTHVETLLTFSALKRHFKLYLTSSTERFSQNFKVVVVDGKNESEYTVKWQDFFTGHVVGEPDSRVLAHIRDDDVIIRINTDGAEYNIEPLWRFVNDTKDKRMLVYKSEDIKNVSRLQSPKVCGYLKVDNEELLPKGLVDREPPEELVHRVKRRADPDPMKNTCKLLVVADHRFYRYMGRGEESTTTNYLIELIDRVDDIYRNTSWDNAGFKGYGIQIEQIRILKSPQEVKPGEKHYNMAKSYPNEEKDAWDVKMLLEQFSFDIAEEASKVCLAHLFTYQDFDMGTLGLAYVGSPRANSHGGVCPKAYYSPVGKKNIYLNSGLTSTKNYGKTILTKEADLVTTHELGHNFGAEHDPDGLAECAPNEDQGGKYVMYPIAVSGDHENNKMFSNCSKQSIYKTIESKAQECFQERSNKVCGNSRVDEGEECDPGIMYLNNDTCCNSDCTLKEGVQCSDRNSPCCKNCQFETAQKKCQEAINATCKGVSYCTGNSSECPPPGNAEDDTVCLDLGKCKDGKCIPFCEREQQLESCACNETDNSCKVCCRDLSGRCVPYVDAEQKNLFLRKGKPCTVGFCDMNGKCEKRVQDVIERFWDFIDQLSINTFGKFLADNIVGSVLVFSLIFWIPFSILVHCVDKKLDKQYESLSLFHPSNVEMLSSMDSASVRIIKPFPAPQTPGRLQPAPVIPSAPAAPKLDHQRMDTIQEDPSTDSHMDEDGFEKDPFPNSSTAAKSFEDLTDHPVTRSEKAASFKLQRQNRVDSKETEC

Key:
[1] = molecular target: T1, Disintegrin and metalloproteinase domain-containing protein 17 (Homo sapiens, UniProt P78536); assay: Inhibition of TNF(tumor necrosis factor) in human blood; type: functional
[2] = molecular target: T1, Disintegrin and metalloproteinase domain-containing protein 17; assay: Inhibitory activity against Tumor necrosis factor alpha-converting enzyme (TACE) in blood.; type: tissue-based

## CNC(=O)[C@@H](NC(=O)C(CC(C)C)C(O)C(=O)NO)C(C)(C)C (single isomer, unassigned)
[1]
  IC50: 7 µM
[2]
  IC50: 3.8 nM
